From PubChem BioAssay AID652017 (The Scripps Research Institute Molecular Screening Center, 2013)
This is a selection; strong and weak results do not stand in their true shares. Activity calls are given as the source filed them. Cut-off read from the data, not from the text of the source: active = activation above about 7.8%; inactive = the rest.

Assay: SMARCA2 (BRM) function activators, primary screen, cell-based, luminescence, high throughput (AID 652017);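 note: 0% = vehicle wells and 100% = reference activator wells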
Settings: MG213 cells, MMTV-luciferase reporter, dexamethasone, overnight; at 9.1 µM; hits give high values

SMILES | activation
CCC(=O)N(c1ccccc1)C1(COC)CCN(CCc2cccs2)CC1 | inactive: 0.63%
CCC(=O)N(c1ccccc1)C1(COC)CCN(CCn2nnn(CC)c2=O)CC1 | inactive: -6.55%
